Test results as given in article PMC6504641 (Chembiochem : a European journal of chemical biology, 2018).

Target: GST-tagged full-length HRAS (UniProt Q61411)
Test: SEC

stoichiometry N: 2
Substance: GST-tagged full-length HRAS (from UniProt Q61411 1-189) (natural protein)
